{"source": "patent US10548982B2", "about": "“Reversible covalent linkage of functional molecules” (priority 2009, dated 2020)", "experiment": "glutathione-mediated cleavage of adduct at physiologically relevant glutathione concentration (LC-MS)", "type": "physicochemical", "settings": "glutathione 5 mM (5 μL of 100 mM), 0° C., 4 h, pH 8.0", "note": "“Also recorded” adds a separate entry of the source.", "data": [{"substance": "GrB2-SH2 Domain L111C/Dibromomaleimide/Glutathione Adduct", "values": [{"measurement": "cleavage of adduct regenerating GrB2-SH2 domain L111C", "value": "GrB2-SH2 domain L111C was the only protein species present; also recorded: quantitative yield"}]}]}
